Experimental data published in ChEMBL document CHEMBL3124844 (J Med Chem, 2014).

Sequences of proteins named here, by UniProt entry; tags and fusion partners are left off.
UniProt P31652, whole entry: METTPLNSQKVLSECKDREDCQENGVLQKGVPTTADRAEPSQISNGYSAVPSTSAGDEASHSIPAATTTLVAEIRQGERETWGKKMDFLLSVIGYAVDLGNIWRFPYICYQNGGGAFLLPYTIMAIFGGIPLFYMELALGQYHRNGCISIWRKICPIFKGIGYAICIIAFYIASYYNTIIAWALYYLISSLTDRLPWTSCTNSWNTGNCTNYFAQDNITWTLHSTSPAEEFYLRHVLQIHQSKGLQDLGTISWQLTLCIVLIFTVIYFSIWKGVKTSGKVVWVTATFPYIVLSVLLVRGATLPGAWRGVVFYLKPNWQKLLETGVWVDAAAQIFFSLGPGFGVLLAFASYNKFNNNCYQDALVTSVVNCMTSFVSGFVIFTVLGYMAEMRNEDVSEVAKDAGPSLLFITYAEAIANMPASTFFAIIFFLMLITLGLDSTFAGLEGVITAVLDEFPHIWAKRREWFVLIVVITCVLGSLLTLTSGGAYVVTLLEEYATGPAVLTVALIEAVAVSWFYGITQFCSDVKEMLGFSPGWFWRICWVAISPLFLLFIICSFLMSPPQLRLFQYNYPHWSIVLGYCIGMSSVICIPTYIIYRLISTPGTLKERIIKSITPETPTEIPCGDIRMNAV
UniProt P23977, whole entry: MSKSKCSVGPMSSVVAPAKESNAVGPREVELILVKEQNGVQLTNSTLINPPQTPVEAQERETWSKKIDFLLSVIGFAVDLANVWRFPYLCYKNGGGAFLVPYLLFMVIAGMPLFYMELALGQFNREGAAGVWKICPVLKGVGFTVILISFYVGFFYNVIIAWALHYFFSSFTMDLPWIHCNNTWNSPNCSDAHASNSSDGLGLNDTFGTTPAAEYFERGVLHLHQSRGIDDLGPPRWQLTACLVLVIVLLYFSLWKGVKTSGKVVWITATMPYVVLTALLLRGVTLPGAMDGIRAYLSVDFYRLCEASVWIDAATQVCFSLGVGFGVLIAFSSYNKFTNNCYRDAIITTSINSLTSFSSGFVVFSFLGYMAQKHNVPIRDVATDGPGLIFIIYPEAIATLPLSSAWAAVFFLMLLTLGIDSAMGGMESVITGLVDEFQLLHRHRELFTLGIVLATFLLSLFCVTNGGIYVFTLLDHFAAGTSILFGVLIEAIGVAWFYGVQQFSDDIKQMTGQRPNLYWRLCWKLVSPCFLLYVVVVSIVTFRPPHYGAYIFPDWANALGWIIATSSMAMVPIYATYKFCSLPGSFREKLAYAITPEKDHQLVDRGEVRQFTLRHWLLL

What was measured:
[1] = species on record: Rattus norvegicus; assay: Selectivity ratio of Ki for Sprague-Dawley rat brain SERT to Ki for Sprague-Dawley rat brain DAT
[2] = molecular target: Sodium-dependent serotonin transporter (Rattus norvegicus, UniProt P31652); assay: Displacement of [3H]citalopram from Sprague-Dawley rat brain SERT after 60 mins by liquid scintillation counting analysis; assay type: tissue-based
[3] = molecular target: Sodium-dependent dopamine transporter (Rattus norvegicus, UniProt P23977); assay: Displacement of [3H]WIN35,428 from Sprague-Dawley rat brain DAT after 120 mins by liquid scintillation counting analysis; assay type: tissue-based

| SMILES | Ratio Ki [1] | Ki [3] | other results |
| --- | --- | --- | --- |
| CCCCNCC[S+]([O-])C(c1ccccc1)c1ccccc1 (stereo not drawn) | 41 |  |  |
| CCCCNCCSC(c1ccccc1)c1ccccc1 | 18 |  |  |
| CCCCNC(=O)CSC(c1ccc(F)cc1)c1ccc(F)cc1 |  |  | Ki [2]: 25500 nM |
| O=C(CSC(c1ccc(Br)cc1)c1ccc(Br)cc1)NCCCCc1ccccc1 |  | 405 nM |  |
| O=C(CSC(c1ccc(Br)cc1)c1ccc(Br)cc1)NCCCc1ccccc1 | 249 |  |  |
| Fc1ccc(C(SCCNCCCc2ccccc2)c2ccc(F)cc2)cc1 |  | 114 nM |  |
| CNC(=O)CSC(c1ccc(Cl)cc1)c1ccc(Cl)cc1 |  | 4130 nM |  |
| O=C(CSC(c1ccc(F)cc1)c1ccc(F)cc1)NCCCc1ccccc1 |  | 442 nM |  |
